For one test, the target named is BCR-ABL (Homo sapiens, UniProt P00519). As to the kind of experiment: HSP90β-BCR-ABL interaction, QLPPI assay.
The next test concerns the target BCR-ABL (T315I) (Homo sapiens, UniProt P00519, T315I). As to the kind of experiment: HSP90β-BCR-ABL T315I interaction, QLPPI assay.
The subject of a further test is M091 tumor xenografts. To be noted: mice; crizotinib (100 mg/ml) orally by gavage, daily; vs vehicle; FIG. 6(E).

“Also recorded” adds a separate entry of the source.

`CN(C)S(=O)(=O)c1ccc2c(c1)/C(=C/c1cc3c([nH]1)CCCC3)C(=O)N2` [SU6656]: at BCR-ABL, the “effect on interaction between HSP90β and BCR-ABL” value is listed as “inhibits interaction”. For the same compound, the “effect on interaction between HSP90β and BCR-ABL T315I mutant” value at BCR-ABL (T315I) is “inhibits interaction”.

As to `C[C@@H](Oc1cc(-c2cnn(C3CCNCC3)c2)cnc1N)c1c(Cl)ccc(F)c1Cl` [Crizotinib], the “M091 tumor xenograft growth” value in the test with M091 tumor xenografts is recorded as “dramatically inhibited; also recorded: inhibited growth”.

Values taken from patent US9746470B2, “Chaperone interaction assays and uses thereof” (Whitehead Institute for Biomedical Research, priority 2011, dated 2017).
